Compound activity: PubChem, National Center for Advancing Translational Sciences (NCATS)
Sampled rows, rich in hits. Any-hit rate of the full collection: about 1.1%.
GALK inhibitor: blocks human galactokinase activity | P51570 | Purified GALK, Kinase-Glo residual ATP luminescence | Potency, µM (highest dose often 57.5 µM), without a hit: at the top dose activity change, negative = inhibition, hits mostly inhibitors | hit rate 0.007% among 270,000 | AID 1868; also: potency is read from the fitted curve at half-maximal effect; % is scaled to controls: 0 for no effect and ±100 for the full control effect
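The enzyme phosphorylates galactose (100 uM) using ATP (35 uM); inhibition is detected as higher residual ATP, quantified by bioluminescence after 1 h reaction at room temperature, pH 8.0.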
PINK1 expr mod: changes PINK1 expression. Potency, µM (doses to about 76.6 µM), for inactives: at the highest dose activation (PINK1 increase), usual class: activators. hit rate 0.2% among 410,000. PINK1 immunofluorescence, high-content cytometry, 24 h; active = well fitted activation curve with a large enough effect; inconclusive = small, poorly fitted or top-dose-only effect; cell line not stated here; also: potency is read from the fitted curve at half-maximal effect; % of control where 0% means no effect; nearly all actives have a fitted effect of over 65% in size
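Fluorescence from anti-PINK1 antibody, together with nuclear and cell stains, was scanned on a laser-scanning cytometer. Before staining, stable-line cells were incubated 24 hours with compounds at 5 concentrations; primary antibody 12 h at 10 degrees C.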
TrxR1 substrate: rat thioredoxin reductase 1 substrate activity. O89049. purified TrxR1 substrate turnover, NADPH consumption readout. Potency, µM (doses to about 114 µM), for the others: at the top dose activity change, negative = substrate turnover. hit rate 0.01% among 390,000. AID 588456; also: potency is read from the fitted curve at half-maximal effect; % is scaled to controls: 0 for no effect and ±100 for the full control effect; nearly all actives have a fitted effect of over 50% in size
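Rat TrxR1, dispensed at 90 nM, was prereduced with 400 uM NADPH (final) for 5 min at ~22 deg C, then incubated with compound 15 min before 400 uM selenite. A first-read NADPH fluorescence drop versus no-compound background flagged substrates.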
rTrxR1 inhibitor: inhibitors of rat thioredoxin reductase 1 | O89049 | recombinant rTrxR1, NADPH fluorescence consumption, selenite substrate | Potency, µM (series often up to 114 µM), for inactives: at the top dose activity change, negative = inhibition, most hits filed as inhibitors | hit rate 1% among 390,000 | AID 588453; also: potency is read from the fitted curve at half-maximal effect; % is scaled to controls: 0 for no effect and ±100 for the full control effect; nearly all actives have a fitted effect of over 65% in size
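Rat TrxR1 (90 nM in the dispensed reagent) was pre-reduced with 400 uM NADPH for 5 min at room temperature, then incubated with compound for 15 min. After 400 uM selenite was added, NADPH fluorescence (Ex 340/Em 450 nm) was followed for 8 min.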
miR-21 reporter: miR-21 reporter, rising signal; HeLa miR-21 FLuc reporter, luciferase, 48 h; Potency, µM (doses to about 38.3 µM), for inactives: at the highest dose reporter change, positive = more light; 340,000 tested, under 10 active; AID 2288; active = well fitted rising curve with a large enough effect; inconclusive = small, poorly fitted or top-dose-only effect; inactive = no such curve, though single readings can be large or run the other way;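 further: % of control where 0% means no effect; miR-21 action dims this reporter so a rising signal means less miR-21 action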
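HeLa cells stably expressing CMV-driven firefly luciferase with a downstream miR-21 binding sequence, endogenously expressing miR-21, were treated with titrations (up to about 40uM final) for 48 hours at 37 degree Celsius. Luciferase luminescence was read after lysis.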
* = called active by the depositor; ? = inconclusive; nt = not tested or not shown; [ ] = remark or other dose. Unless noted, calls follow the shape of the dose curve; as a rule, active = well fitted curve in the direction sought with a large enough effect; inconclusive = small, poorly fitted or top-dose-only effect, or another doubt; inactive = no such curve, though single readings can be large; an effect the other way counts as inactive or inconclusive.

Abbreviations – A = GALK inhibitor; B = PINK1 expr mod; C = TrxR1 substrate; D = rTrxR1 inhibitor; E = miR-21 reporter
Cc1ccccc1-c1nc(CS(=O)(=O)CC(=O)NCCCN2CCCC2=O)c(C)o1
  A: -1%	B: 0%	C: 9%[57.1 µM]	D: 25µM*	E: -8%

CCNC(=S)Nc1cc(OC)c(NC(=O)c2ccco2)cc1OC
  A: 5%	B: -2%	C: -5%	D: -15%	E: 0%

COC(=O)c1cc(OC)c(OC)cc1NC(=S)NC(=O)c1ccco1
  A: -3%	B: 2%	C: -2%	D: 14µM*	E: 3%

Cc1cc(C)cc(N2C(=O)C=CC2=O)c1
  A: nt	B: -1%	C: -2%	D: 1.1µM*	E: nt

Cc1cc(N2C(=O)C=CC2=O)c([N+](=O)[O-])cc1C
  A: 0%	B: 0%	C: 10%	D: 2.8µM*	E: ?

Cc1c(Cl)cc(-n2cnnn2)cc1[N+](=O)[O-]
  A: 0%	B: -2%	C: 1%	D: 2%[57.1 µM]	E: 4%

Cc1c([N+](=O)[O-])cc(N2C(=O)C=CC2=O)cc1[N+](=O)[O-]
  A: nt	B: 4%	C: 3%[57.1 µM]	D: 3.2µM*	E: nt

O=C(COc1ccc2oc3c(c2c1)CCCC3)Nc1ccc(Cl)cc1
  A: nt	B: 6%	C: 1%	D: 19%	E: 3%

O=[N+]([O-])c1ccc(NS(=O)(=O)c2ccc(Cl)c(Cl)c2)cc1
  A: nt	B: 16µM*	C: nt	D: nt	E: nt

O=C1C(Cl)=C(NS(=O)(=O)c2ccc([N+](=O)[O-])cc2)C(=O)c2ccccc21
  A: -1%	B: 1%	C: -13%	D: 0.79µM*	E: ?

Cc1ccc2nc(SCC(=O)N3CCC4(CC3)CC4C(=O)Nc3ccc(F)c(F)c3)[nH]c2c1 (stereo not drawn)
  A: nt	B: 0%	C: nt	D: nt	E: nt

Cc1ccccc1-c1nc(CS(=O)(=O)CC(=O)NCc2cccc(Cl)c2)c(C)o1
  A: nt	B: 0%	C: -1%	D: -26%	E: -3%

COc1cc(/C=C/[N+](=O)[O-])ccc1OCc1cccc(C(=O)O)c1
  A: -3%	B: 1%	C: -12%	D: 32µM*	E: -32%

COc1ccc(C(=O)C=Cc2ccc(OCc3ccccc3)c(OC)c2)cc1OC
  A: nt	B: -1%	C: nt	D: nt	E: nt

CN(C)CCCN(C(=O)c1ccc([N+](=O)[O-])o1)c1nc2cc3c(cc2s1)OCO3
  A: -1%	B: 2%	C: -7%	D: 50µM*	E: 3%

CN(C)CCCN(C(=O)c1ccc2c(c1)OCCO2)c1nc2cc3c(cc2s1)OCO3
  A: 7%	B: 0%	C: -5%	D: 2%	E: -8%

CC1(OC(=O)C2CCCC2)C(=O)C=C2C=C(c3ccsc3)N(CCCCO)C=C2C1=O (stereo not drawn)
  A: 4%	B: 1%	C: -8%[57.1 µM]	D: 12%[57.1 µM]	E: 1%

CC1(OC(=O)C2CCCC2)C(=O)C=C2C=C(c3ccsc3)N(Cc3ccco3)C=C2C1=O (stereo not drawn)
  A: -1%	B: 1%	C: -2%	D: 32µM*	E: -7%

COCC(=O)Nc1nc2n(n1)C(c1ccc(Cl)cc1)CC(c1ccc(OC)cc1)N2 (stereo not drawn)
  A: 1%	B: -2%	C: 27%[57.1 µM]	D: 18µM*	E: -2%

O=C(NC1CC(=O)N(c2ccc(F)cc2)C1)c1ccc2c(c1)OCO2 (stereo not drawn)
  A: nt	B: 1%	C: 2%[57.1 µM]	D: 19%[57.1 µM]	E: -3%

CCOC(=O)C=C(C(=O)OCC)C(=O)OCC
  A: 1%	B: 1%	C: 9%	D: 3.5µM*	E: 0%

CCOC(=O)CNC=C(C(=O)OCC)C(=O)OCC
  A: 1%	B: 3%	C: 5%[57.1 µM]	D: -3%[57.1 µM]	E: -9%

CCN(Cc1ccncc1)Cc1c(O)ccc2cc(Br)ccc12
  A: -1%	B: -2%	C: 9%[57.1 µM]	D: 7.9µM*	E: 0%

CCOc1cc(C(=O)Nc2cc(C)ccn2)cc(OCC)c1OCC
  A: 2%	B: 1%	C: -8%	D: -13%	E: 14%

CCOc1cc(C(=O)Nc2cnccn2)cc(OCC)c1OCC
  A: 4%	B: 14µM*	C: 8%	D: 19%	E: 21%

Sorted by value in rTrxR1 inhibitor (falling): four from the list above
SMILES,rTrxR1 inhibitor
CN(C)CCCN(C(=O)c1ccc([N+](=O)[O-])o1)c1nc2cc3c(cc2s1)OCO3,50µM*
COc1cc(/C=C/[N+](=O)[O-])ccc1OCc1cccc(C(=O)O)c1,32µM*
Cc1c([N+](=O)[O-])cc(N2C(=O)C=CC2=O)cc1[N+](=O)[O-],3.2µM*
Cc1cc(N2C(=O)C=CC2=O)c([N+](=O)[O-])cc1C,2.8µM*

The listing continues:
Abbreviations – A = GALK inhibitor; B = PINK1 expr mod; C = TrxR1 substrate; D = rTrxR1 inhibitor; E = miR-21 reporter
COc1ccc(-n2c(CNC(=O)c3cccc(OC)c3OC)nnc2SC)cc1
  A: nt	B: 3%	C: nt	D: nt	E: nt

COc1cc(NC(=O)COC(=O)c2n[nH]c3ccccc23)c(C)cc1[N+](=O)[O-]
  A: 9%	B: 45µM*	C: -6%	D: 2%	E: -2%

Cn1c(=O)c(=O)n(C)c2cc(N3CCOCC3)c(NS(=O)(=O)c3ccc(F)c(Cl)c3)cc21
  A: 6%	B: 0%	C: -3%	D: 9%	E: 2%

Cn1c(=O)c(=O)n(C)c2cc(N3CCCC3)c(NS(=O)(=O)c3ccc(Cl)cc3)cc21
  A: -5%	B: 1%	C: -1%	D: 35µM*	E: -1%

COc1cccc(NC(=O)CSc2nnc(-c3ccco3)c(-c3ccco3)n2)c1
  A: 0%	B: 0%	C: -5%	D: 7.1µM*	E: 0%

CSc1nnc(-c2ccco2)c(-c2ccco2)n1
  A: -3%	B: -2%	C: -9%	D: 16µM*	E: 1%

O=C(CSc1nnc(-c2ccco2)c(-c2ccco2)n1)Nc1ccccc1
  A: 3%	B: -2%	C: -13%	D: 5µM*	E: -10%

Cc1ccc(NC(=O)CSc2nnc(-c3ccco3)c(-c3ccco3)n2)cc1
  A: 5%	B: 5%	C: -13%	D: 1µM*	E: 10%

CN(C)c1ccc(NC(=O)CSc2nnc(-c3ccco3)c(-c3ccco3)n2)cc1
  A: 0%	B: 6%	C: -10%	D: -27%	E: 7%

CSc1nnc(-c2ccccc2)c(-c2ccccc2)n1
  A: 1%	B: 0%	C: -3%	D: 5%	E: -9%

O=[N+]([O-])c1ccccc1S(=O)(=O)N1CCN(c2nc(-c3cccs3)nc3ccccc23)CC1
  A: nt	B: -1%	C: -3%	D: 16%	E: nt

CC(C)(C)OC(=O)N1CCC(c2c(C(=O)N3CCCCC3)cnn2-c2ccccc2Cl)CC1
  A: nt	B: -1%	C: -2%	D: 10%	E: 7%

COC(=O)C1CCCCN1Cc1ccc2c(c1)CN(Cc1cn[nH]c1-c1ccc(F)cc1)CCO2 (stereo not drawn)
  A: nt	B: 1%	C: nt	D: nt	E: nt

CCCCc1ccc(NC(=O)c2cc(-c3ccc(C)c(F)c3)on2)cc1
  A: nt	B: 1%	C: 0%	D: 10%	E: 21%

COc1ccc(C(=O)CSc2nnc(-c3ccco3)c(-c3ccco3)n2)cc1
  A: 1%	B: 7%	C: -8%	D: 8.9µM*	E: -17%

Cc1ncnc2nc[nH]c12
  A: nt	B: nt	C: 6%	D: 23%	E: nt

CCN1C(=O)C(CC(=O)Nc2ccc(OC)cc2)N(CCc2ccccc2F)C1=S (stereo not drawn)
  A: -2%	B: ?	C: 2%[57.1 µM]	D: -8%	E: 22%

COc1ccc(NC(=O)CC2C(=O)N(C)C(=S)N2CCc2ccccc2F)cc1 (stereo not drawn)
  A: -2%	B: 16µM*	C: 5%[57.1 µM]	D: 27%[57.1 µM]	E: ?

COc1ccc(NC(=O)CC2C(=O)N(c3ccc(Cl)cc3)C(=S)N2CCc2ccccn2)cc1 (stereo not drawn)
  A: -2%	B: 28µM*	C: -20%	D: -14%	E: 30%

COc1cccc(N2CCN(C(=O)Cn3cnc4onc(-c5ccc(F)cc5)c4c3=O)CC2)c1
  A: nt	B: -4%	C: -3%	D: 37%	E: -3%

N#CC1=C(N)C(C#N)(C#N)C2(CCC3(CC2)OCCO3)C2CC3(CC=C12)OCCO3 (stereo not drawn)
  A: 0%	B: -5%[38.3 µM]	C: 6%	D: 89µM*	E: -6%

CCCCNC(=O)c1ccc2c(c1)ncn2-c1cc(OC)ccc1OC
  A: nt	B: 4%	C: 6%[57.1 µM]	D: 9%[57.1 µM]	E: -6%

CCCCCCC(=O)N(O)C1CC(=O)N(c2ccc(F)cc2)C1=O (stereo not drawn)
  A: 5%	B: 4%	C: 12%[57.1 µM]	D: 3.5µM*	E: -1%

Two entries from above, in CSV form.
mol,GALK inhibitor,PINK1 expr mod,TrxR1 substrate,rTrxR1 inhibitor,miR-21 reporter
Cn1c(=O)c(=O)n(C)c2cc(N3CCCC3)c(NS(=O)(=O)c3ccc(Cl)cc3)cc21,-5%,1%,-1%,35µM*,-1%
CCCCCCC(=O)N(O)C1CC(=O)N(c2ccc(F)cc2)C1=O (stereo not drawn),5%,4%,12%[57.1 µM],3.5µM*,-1%
